From patent publication US4910214A, “Optical isomer of an imidazole derivative medetomidine as an alpha-2-receptor agonist” (Farmos Yhtyma Oy, priority 1987, dated 1990)

Tests used:
α2 -receptors = type: binding, rat; settings: ratio of 3H-prazosin IC50 to 3H-clonidine IC50
Text: The selectivity of the d-enantiomer as an α2 -agonist was studied in receptor binding experiments using rat brain membranes. […] 108, 163-9, 1985.

α1 -receptors = experiment: 3H-prazosin displacement, receptor binding in rat brain membranes
Text: The selectivity of the d-enantiomer as an α2 -agonist was studied in receptor binding experiments using rat brain membranes. The ability of the d-isomer and the reference compounds to compete with ^3 H-clonidine (for α2 -receptors) and ^3 H-prazosin (for α1 -receptors) was studied essentially as described by Virtanen and Nyman in Eur. J. Pharmac. 108, 163-9, 1985. Results of the test are presented in Table 2, where the ability of the studied agents to compete with ^3 H-clonidine and ^3 H-prazosin binding is expressed as the IC50 -value (molar concentration of the competing ligand needed to displace 50 percent of the radioactive ligand).

Cc1cccc(Cc2c[nH]cn2)c1C [detomidine]
α2 /α1 -selectivity (α2 -receptors): 65 | IC50 (α1 -receptors): 242 nM
